Measurements published in ChEMBL document CHEMBL1146197, “Evolution of TEM-type enzymes: biochemical and genetic characterization of two new complex mutant TEM enzymes, TEM-151 and TEM-152, from a single patient” (Antimicrob Agents Chemother, 2007).

Experiments:
[1] = test system: Escherichia coli; experiment: Activity of Escherichia coli BL21(DE3) beta-lactamase TEM28
[2] = test system: Escherichia coli; experiment: Activity of Escherichia coli BL21(DE3) beta-lactamase TEM1
[3] = test system: Escherichia coli; experiment: Activity of Escherichia coli BL21(DE3) beta-lactamase TEM151
[4] = test system: Escherichia coli; experiment: Activity of Escherichia coli BL21(DE3) beta-lactamase TEM29
[5] = test system: Escherichia coli; experiment: Activity of Escherichia coli BL21(DE3) beta-lactamase TEM36
[6] = test system: Escherichia coli; experiment: Activity of Escherichia coli BL21(DE3) beta-lactamase TEM152

Compound: CC1(C)S[C@@H]2[C@H](NC(=O)Cc3ccccc3)C(=O)N2[C@H]1C(=O)O
- Km [1]: 17 µM
- kcat [1]: 243 s⁻¹
- kcat/Km [1]: 1.43e+07 M⁻¹ s⁻¹
- Km [2]: 34 µM
- kcat [2]: 1500 s⁻¹
- kcat/Km [2]: 4.4e+07 M⁻¹ s⁻¹
- Km [3]: 25 µM
- kcat [3]: 251 s⁻¹
- kcat/Km [3]: 1e+07 M⁻¹ s⁻¹
- Km [4]: 12 µM
- kcat [4]: 235 s⁻¹
- kcat/Km [4]: 1.96e+07 M⁻¹ s⁻¹
- Km [5]: 60 µM
- kcat [5]: 800 s⁻¹
- kcat/Km [5]: 1.33e+07 M⁻¹ s⁻¹
- Km [6]: 15 µM
- kcat [6]: 196 s⁻¹
- kcat/Km [6]: 1.3e+07 M⁻¹ s⁻¹
